Measurements: PubChem BioAssay (Tox21)
The list shows a part of the results, in another mix than the full data. Results filed as inconclusive are left out. The source made the active and inactive calls. Unless noted, the call rests on the fitted dose curve; in most records, active means well fitted curve in the direction sought with a large enough effect in the repeat runs; inconclusive means weak or mixed curves; inactive means no such curve, though single readings can be large; an effect the other way counts as inactive or inconclusive.

Protein sequences, listed by entry. Tags and fused reporters are not part of them.
UniProt P11473, whole entry: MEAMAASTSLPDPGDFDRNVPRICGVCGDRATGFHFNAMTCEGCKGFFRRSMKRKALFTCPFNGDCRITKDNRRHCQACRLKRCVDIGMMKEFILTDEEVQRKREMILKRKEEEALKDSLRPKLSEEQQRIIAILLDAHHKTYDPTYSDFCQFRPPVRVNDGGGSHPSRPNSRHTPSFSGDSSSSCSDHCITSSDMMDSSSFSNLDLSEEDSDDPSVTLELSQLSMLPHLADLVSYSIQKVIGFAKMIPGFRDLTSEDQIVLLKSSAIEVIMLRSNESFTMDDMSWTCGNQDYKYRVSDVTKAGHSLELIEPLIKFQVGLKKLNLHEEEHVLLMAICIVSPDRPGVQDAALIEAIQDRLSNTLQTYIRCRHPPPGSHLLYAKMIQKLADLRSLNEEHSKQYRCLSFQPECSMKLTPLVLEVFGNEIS
UniProt P16473, whole entry: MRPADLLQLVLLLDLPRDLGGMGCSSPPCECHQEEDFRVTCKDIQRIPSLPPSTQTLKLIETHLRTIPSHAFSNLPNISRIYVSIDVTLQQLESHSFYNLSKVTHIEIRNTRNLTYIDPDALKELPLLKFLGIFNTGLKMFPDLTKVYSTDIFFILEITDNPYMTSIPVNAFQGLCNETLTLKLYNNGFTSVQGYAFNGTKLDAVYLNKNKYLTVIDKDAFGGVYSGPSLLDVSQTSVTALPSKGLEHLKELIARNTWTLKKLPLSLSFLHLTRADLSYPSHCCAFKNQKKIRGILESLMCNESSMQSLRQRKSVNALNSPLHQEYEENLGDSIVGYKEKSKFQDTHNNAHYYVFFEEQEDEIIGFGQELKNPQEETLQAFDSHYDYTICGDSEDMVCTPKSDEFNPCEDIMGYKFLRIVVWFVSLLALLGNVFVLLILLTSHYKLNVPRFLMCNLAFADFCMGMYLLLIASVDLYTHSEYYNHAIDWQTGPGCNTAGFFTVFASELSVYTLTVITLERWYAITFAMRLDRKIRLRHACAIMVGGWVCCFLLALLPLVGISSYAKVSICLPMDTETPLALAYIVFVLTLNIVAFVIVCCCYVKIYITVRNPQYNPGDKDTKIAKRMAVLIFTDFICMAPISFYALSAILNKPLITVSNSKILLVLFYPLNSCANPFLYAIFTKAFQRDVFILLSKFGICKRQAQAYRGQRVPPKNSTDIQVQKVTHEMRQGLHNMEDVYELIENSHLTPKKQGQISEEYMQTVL
UniProt Q12809, whole entry: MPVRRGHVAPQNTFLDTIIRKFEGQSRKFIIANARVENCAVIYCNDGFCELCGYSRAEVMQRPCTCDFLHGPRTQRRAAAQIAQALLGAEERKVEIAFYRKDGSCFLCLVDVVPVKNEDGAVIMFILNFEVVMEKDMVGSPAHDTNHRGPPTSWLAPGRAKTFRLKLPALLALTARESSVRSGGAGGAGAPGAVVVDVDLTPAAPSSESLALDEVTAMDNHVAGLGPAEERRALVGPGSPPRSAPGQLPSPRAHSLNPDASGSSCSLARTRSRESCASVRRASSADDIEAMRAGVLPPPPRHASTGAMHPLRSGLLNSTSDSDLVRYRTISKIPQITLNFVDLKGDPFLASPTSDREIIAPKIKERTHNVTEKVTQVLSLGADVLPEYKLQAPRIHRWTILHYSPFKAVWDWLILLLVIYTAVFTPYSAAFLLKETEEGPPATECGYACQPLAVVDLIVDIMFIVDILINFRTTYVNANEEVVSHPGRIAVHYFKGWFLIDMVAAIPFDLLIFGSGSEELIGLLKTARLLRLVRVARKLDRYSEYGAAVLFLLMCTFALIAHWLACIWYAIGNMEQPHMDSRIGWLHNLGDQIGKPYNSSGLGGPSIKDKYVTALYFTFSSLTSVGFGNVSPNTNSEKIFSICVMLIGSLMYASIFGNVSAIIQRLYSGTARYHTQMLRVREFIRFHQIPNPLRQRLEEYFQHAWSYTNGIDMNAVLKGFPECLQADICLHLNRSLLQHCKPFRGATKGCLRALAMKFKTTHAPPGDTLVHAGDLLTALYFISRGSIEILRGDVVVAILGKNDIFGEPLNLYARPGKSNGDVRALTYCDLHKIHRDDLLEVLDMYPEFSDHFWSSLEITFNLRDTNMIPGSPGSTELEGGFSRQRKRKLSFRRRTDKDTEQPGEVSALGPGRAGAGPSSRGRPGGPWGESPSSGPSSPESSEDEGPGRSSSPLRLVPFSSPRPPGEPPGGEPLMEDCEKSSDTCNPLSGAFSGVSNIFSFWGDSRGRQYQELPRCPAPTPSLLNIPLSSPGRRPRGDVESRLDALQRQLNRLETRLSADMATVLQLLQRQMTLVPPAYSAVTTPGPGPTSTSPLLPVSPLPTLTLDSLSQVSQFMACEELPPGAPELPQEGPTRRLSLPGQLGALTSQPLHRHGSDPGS
UniProt Q14994, whole entry: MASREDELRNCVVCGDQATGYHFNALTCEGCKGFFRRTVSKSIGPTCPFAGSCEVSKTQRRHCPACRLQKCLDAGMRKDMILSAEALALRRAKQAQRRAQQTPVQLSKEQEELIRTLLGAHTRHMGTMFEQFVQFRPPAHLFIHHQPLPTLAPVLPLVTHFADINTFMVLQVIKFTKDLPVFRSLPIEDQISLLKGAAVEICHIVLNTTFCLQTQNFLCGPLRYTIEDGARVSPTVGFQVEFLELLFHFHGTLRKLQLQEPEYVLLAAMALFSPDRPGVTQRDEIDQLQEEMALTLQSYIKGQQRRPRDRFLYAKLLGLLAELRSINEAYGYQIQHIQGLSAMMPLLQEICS
UniProt P04150, whole entry: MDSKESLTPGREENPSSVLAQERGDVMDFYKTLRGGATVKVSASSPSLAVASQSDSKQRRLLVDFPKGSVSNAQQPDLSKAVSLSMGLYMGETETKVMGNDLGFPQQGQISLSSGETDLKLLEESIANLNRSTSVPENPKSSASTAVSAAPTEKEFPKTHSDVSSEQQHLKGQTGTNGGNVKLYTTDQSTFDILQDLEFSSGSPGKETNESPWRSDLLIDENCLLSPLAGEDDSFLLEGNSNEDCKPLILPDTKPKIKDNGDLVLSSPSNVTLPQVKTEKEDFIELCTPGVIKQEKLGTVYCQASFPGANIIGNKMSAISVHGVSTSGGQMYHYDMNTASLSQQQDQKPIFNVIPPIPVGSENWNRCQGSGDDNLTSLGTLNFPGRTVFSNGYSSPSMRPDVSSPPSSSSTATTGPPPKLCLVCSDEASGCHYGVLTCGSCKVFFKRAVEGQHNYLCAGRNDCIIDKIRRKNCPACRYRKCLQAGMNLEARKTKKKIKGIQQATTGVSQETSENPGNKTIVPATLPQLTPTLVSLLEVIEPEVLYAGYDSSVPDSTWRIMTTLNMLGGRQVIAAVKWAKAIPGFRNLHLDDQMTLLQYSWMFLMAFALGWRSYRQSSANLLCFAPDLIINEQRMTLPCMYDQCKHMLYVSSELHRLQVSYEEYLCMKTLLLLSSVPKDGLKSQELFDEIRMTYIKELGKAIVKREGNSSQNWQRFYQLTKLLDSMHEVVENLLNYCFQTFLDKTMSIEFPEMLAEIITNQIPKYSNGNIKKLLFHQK

Legend:
[1] = qHTS assay for small molecule agonists of the p53 signaling pathway - cell viability (AID 651633; calls by dose curve; further: potency means the concentration at half of the fitted maximal effect; nearly all actives have a fitted effect of over 30% in size)
How it was run: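 p53RE-bla cells were treated with compound for 16 hours at 37 C. Cytotoxicity was then measured as CellTiter-Glo luminescence after 30 min at room temperature.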

[2] = qHTS assay for small molecule disruptors of the mitochondrial membrane potential - cell viability (AID 720634; calls by dose curve; further: potency means the concentration at half of the fitted maximal effect; nearly all actives have a fitted effect of over 20% in size); conditions: HepG2 viability, ATP luminescence (CellTiter-Glo), 1 h
How it was run: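 Cytotoxicity was quantified from ATP content by CellTiter-Glo luminescence in the same wells as the MMP dye read-out. HepG2 (2,000 cells/well) were plated overnight and exposed to compounds for 1 hr at 37 C.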

[3] = qHTS assay for identifying genotoxic compounds that show differential cytotoxicity against isogenic chicken DT40 cell lines with known DNA damage response pathways - Rad54/Ku70 mutant cell line (AID 743015); conditions: DT40 Rad54/Ku70 mutant viability, CellTiter-Glo, 40 h; further: potency means the concentration at half of the fitted maximal effect; nearly all actives have a fitted effect of over 60% in size
[4] = qHTS assay to identify small molecule antagonists of the estrogen receptor alpha (ER-alpha) signaling pathway using the BG1 cell line - cell viability counter screen (AID 743081);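 further: compound given together with 17beta-estradiol as the ER stimulus; potency means the concentration at half of the fitted maximal effect; nearly all actives have a fitted effect of over 45% in size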
[5] = qHTS assay to identify small molecule agonists of the farnesoid-X-receptor (FXR) signaling pathway - cell viability counter screen (AID 743218); conditions: FXR-bla HEK293T viability, CellTiter-Glo luminescence, 16 h; further: potency means the concentration at half of the fitted maximal effect; nearly all actives have a fitted effect of over 45% in size
How it was run: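 Viability counter screen in the same wells: CellTiter-Glo luminescence, 30 min room-temperature incubation, measured after the beta-lactamase read. Cells were GeneBLAzer FXR-UAS-bla HEK 293T, compound-treated 16 h at 37C.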

[6] = qHTS assay to identify small molecule antagonists of the farnesoid-X-receptor (FXR) signaling pathway - cell viability counter screen (AID 743221; active means well fitted cell-killing curve with a large enough effect in the repeat runs, not every such curve was filed as active; further: potency means the concentration at half of the fitted maximal effect; nearly all actives have a fitted effect of over 50% in size); conditions: FXR-bla HEK293T viability, CellTiter-Glo luminescence, 16 h
How it was run: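 CellTiter-Glo, 30 min RT, luminescence; same wells as the LiveBLAzer FRET read. Cells: FXR-UAS-bla HEK 293T. Treatment: compound with chenodeoxycholic acid 50 uM final, 16 h at 37 C.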

[7] = biological target: Vitamin D3 receptor (Homo sapiens) (UniProt P11473); assay: qHTS assay to identify small molecule antagonists of the vitamin D receptor (VDR) signaling pathway (AID 743223; active means well fitted inhibition curve with a large enough effect in the signal ratio in the repeat runs, not every such curve was filed as active; the % refers to the signal ratio; further: potency means the concentration at half of the fitted maximal effect); conditions: VDR-UAS-bla HEK293T, beta-lactamase FRET ratio, 16 h
How it was run: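 After VDR-bla cells are plated and left 4 h at 37C, DMSO-dissolved compounds and 3 nM (final) calcitriol agonist are added. Incubation continues 16 h at 37C; FRET beta-lactamase substrate then develops 2 h at room temperature.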

[8] = qHTS assay to identify small molecule agonists of the vitamin D receptor (VDR) signaling pathway - cell viability counter screen (AID 743224); further: potency means the concentration at half of the fitted maximal effect; nearly all actives have a fitted effect of over 50% in size
How it was run: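 Counter screen run in the same wells as the VDR-bla reporter assay: CellTiter-Glo luminescence, 30 min at room temperature, after 16 h compound treatment at 37C of cells pre-plated for 4 h.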

[9] = qHTS assay to identify small molecule agonists of the NFkB signaling pathway - cell viability counter screen (AID 1159515; calls by dose curve; further: potency means the concentration at half of the fitted maximal effect; nearly all actives have a fitted effect of over 55% in size); conditions: NFkB-bla ME-180 viability, CellTiter-Glo luminescence, 5 h
How it was run: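 Read by CellTiter-Glo luminescence (30 min, room temperature) in the wells also used for the beta-lactamase FRET read. ME-180 NFkB-bla cells at 2,000 per well were plated overnight, then exposed to compound for 5 hr at 37 C.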

[10] = biological target: Nuclear receptor ROR-gamma (Homo sapiens) (UniProt P51449); assay: qHTS assay to identify small molecule antagonists of the retinoid-related orphan receptor gamma (ROR-gamma) signaling pathway (AID 1159521; further: potency means the concentration at half of the fitted maximal effect; nearly all actives have a fitted effect of over 50% in size); conditions: Tet-on RORgamma CHO cells, RORE-luciferase, 16 h
[11] = qHTS assay to identify small molecule antagonists of the retinoid acid receptor (RAR) signaling pathway - cell viability counter screen (AID 1159551); conditions: C3RL4 cells viability, ATP luminescence (CellTiter-Glo), 6 h; further: potency means the concentration at half of the fitted maximal effect; nearly all actives have a fitted effect of over 35% in size
How it was run: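 Cytotoxicity counter screen: ATP content quantified by CellTiter-Glo luminescence in C3RL4 cells treated 6 hr at 37 C with compound and retinol (1 uM final). Cells plated at 1,000/well and cultured overnight before dosing.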

[12] = qHTS assay to identify small molecule antagonists of the retinoic acid receptor (RAR) signaling pathway (AID 1159552; further: potency means the concentration at half of the fitted maximal effect; nearly all actives have a fitted effect of over 50% in size); conditions: C3RL4 RARE luciferase reporter, retinol-stimulated, 6 h
How it was run: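 Overnight-plated C3RL4 reporter cells get compound, then retinol to 1 uM final; plates sit 6 hr at 37 C, 5% CO2. A luciferase reagent is added and light output recorded after 30 min at room temperature.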

[13] = qHTS assay to identify small molecule antagonists of the estrogen related receptor (ERR) signaling pathway from Tox21 library - cell viability counter screen (AID 1224834); further: potency means the concentration at half of the fitted maximal effect; nearly all actives have a fitted effect of over 30% in size
How it was run: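 CellTiter-Fluor fluorescence, read after 30 min at 37 C, measures viability of ERR cells. Cells plated at 2,000/well and incubated 6 h before pin-tool compound addition, then exposed 17.5 hours at 37 C.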

[14] = qHTS assay to identify small molecule antagonists of the estrogen related receptor signaling pathway with the pleiotropic PPARgamma coactivator (PGC) from Tox21 10K library - cell viability counter screen (AID 1224840; active means well fitted cell-killing curve with a large enough effect in the repeat runs, not every such curve was filed as active; further: potency means the concentration at half of the fitted maximal effect; nearly all actives have a fitted effect of over 40% in size)
How it was run: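 Counter-screen for cytotoxicity: after 17.5 h compound exposure at 37 C, CellTiter-Fluor reagent added to PGC/ERR cells for 30 min and fluorescence read. Cells were seeded at 2,000 per well 6 h before dosing.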

[15] = qHTS assay to identify small molecule agonists of the hypoxia (HIF-1) signaling pathway - cell viability counter screen (AID 1224844; calls by dose curve); conditions: HRE-bla ME-180 viability, CellTiter-Glo luminescence, 17 h
How it was run: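 Cytotoxicity measured by CellTiter-Glo ATP luminescence in the wells also read for beta-lactamase signal. Cells were HRE-bla ME-180 (2,000/well, 0.5% dialyzed FBS), exposed to compounds for 17 h at 37C.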

[16] = qHTS RealTime-Glo MT Cell Viability Assay in HEK293 cells - 40 hour (AID 1224874); conditions: RealTime-Glo luminescence
How it was run: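 Luminescence, which tracks viable cell number through reduction of the prosubstrate to a NanoLuc substrate, was read over continuous 37 C culture. Cells (600/well) were premixed with reagent and rested 5 h before 23 nL of compound in DMSO was pinned.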

[17] = qHTS assay to identify small molecule antagonists of the estrogen receptor alpha (ER-alpha) signaling pathway using the BG1 cell line in the presence of 0.1 nM 17-beta-estradiol - cell viability counter screen (AID 1259241); conditions: VM7Luc4E2 (BG1) viability, CellTiter-Fluor protease, 22 h; 0.1 nM estradiol agonist added; further: potency means the concentration at half of the fitted maximal effect; nearly all actives have a fitted effect of over 40% in size
How it was run: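 Viability in VM7Luc4E2 cells after 22 hr compound exposure under 0.1 nM 17beta-estradiol stimulation, by CellTiter-Fluor.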

[18] = qHTS assay to identify small molecule HDAC inhibitors - cell viability counter screen (AID 1259365)
How it was run: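 Cytotoxicity was gauged in wild-type HCT-116 cells after a brief 2hr treatment with DMSO-dissolved compounds at 37C and 5% CO2, using CellTiter-Glo luminescence developed for 30min at room temperature.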

[19] = qHTS assay to identify small molecule agonists of the androgen receptor (AR) signaling pathway in the presence of an antagonist - cell viability counter screen (AID 1259379); conditions: MDA-kb2 viability, CellTiter-Fluor, 16 h; further: potency means the concentration at half of the fitted maximal effect; nearly all actives have a fitted effect of over 25% in size
How it was run: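 Cytotoxicity counter-screen run in the same wells as the nilutamide-challenged (3.0 µM final) AR agonist assay in MDA-kb2 cells. Compounds tested at 15 concentrations for 16 h, 37 °C without CO2; CellTiter-Fluor fluorescence read.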

[20] = qHTS assay to identify small molecule agonists of the estrogen receptor beta (ER-beta) signaling pathway - cell viability counter screen (AID 1259380); conditions: ER-beta-bla HEK293T viability, CellTiter-Glo luminescence, 16 h; further: potency means the concentration at half of the fitted maximal effect; nearly all actives have a fitted effect of over 30% in size
How it was run: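 Cell viability counter screen: CellTiter-Glo luminescence (30 min, room temperature) measured in the same wells as the beta-lactamase readout, after 16 hr compound exposure at 37C of ER-beta-bla HEK293T cells in 2% charcoal-stripped FBS medium.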

[21] = qHTS assay to identify small molecule antagonists of the estrogen receptor beta (ER-beta) signaling pathway - cell viability counter screen (AID 1259382); conditions: ER-beta-UAS-bla HEK293T viability, CellTiter-Glo luminescence, 16 h; further: potency means the concentration at half of the fitted maximal effect; nearly all actives have a fitted effect of over 55% in size
How it was run: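 Cytotoxicity was measured in the same wells by CellTiter-Glo luminescence after 30 min at room temperature. Cells were ER-beta-bla HEK293T in charcoal-stripped serum, given compound together with 1 nM E2 and incubated 16 h at 37C.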

[22] = biological target: Thyrotropin receptor (Homo sapiens) (UniProt P16473); assay: qHTS assay to identify small molecule antagonists of the thyroid stimulating hormone receptor (TSHR) signaling pathway (AID 1259385; calls by dose curve; further: potency means the concentration at half of the fitted maximal effect; nearly all actives have a fitted effect of over 20% in size); conditions: TSHR-HEK293 cAMP HTRF, TSH-stimulated antagonist mode
[23] = qHTS assay to identify small molecule antagonists of the progesterone receptor (PR) signaling pathway - cell viability counter screen (AID 1346798)
How it was run: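 Viability was determined by ATP-based luminescence (CellTiter-Glo) in PR-UAS-bla HEK293T cells cultured in 2% charcoal-stripped serum and incubated 16 hr with compounds under R5020 stimulation.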

[24] = biological target: Voltage-gated inwardly rectifying potassium channel KCNH2 (Homo sapiens) (UniProt Q12809); assay: Human Ether-a-go-go-Related Gene (hERG) channel small molecule antagonists: fluorescence cell-based qHTS assay (AID 1671200); conditions: hERG-U2OS cells, FluxOR thallium flux fluorescence
How it was run: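 First, 1000 cells per well are seeded and cultured overnight at 37 C. Next, FluxOR II dye is loaded for 1 h at room temperature, protected from light. After 10 more minutes, stimulus is added and fluorescence is read.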

[25] = qHTS assay to test for compound auto fluorescence at 535 nm (green) in HEK293 cells (AID 720680); conditions: green autofluorescence 485/535 nm; at 46 µM (top of the series); further: on the % scale 0 is the no-effect control and ±100 the full control effect
Description: U.S. Tox21 Program National Center for Advancing Translational Sciences [NCATS] NIH Chemical Genomics Center [NCGC] U.S. Environmental Protection Agency [EPA] National Institutes of Environmental Health Sciences [NIEHS] National Toxicology Program [NTP] U.S. Food and Drug Administration [FDA] Tox21 Assay Overview: Compound auto fluorescence often interferes with screening of the compound library against various biological targets and signaling pathways. Some of these compounds may have fluorophoric properties. Such properties may interfere with the assay outputs resulting in false positives and/or negatives. To decrease such complications and ensure the compound activities are relevant in terms of biological response, the Tox21 10K compound library was screened for auto fluorescence. From the fluorophores used as reporter signals in our screening assays, the auto fluorescence equivalencies of compounds against three fluorophores have been evaluated: Triamterene, Fluorescein and Rose Bengal sodium for blue, green and red fluorescence, respectively. The fluorescence intensities were measured using Excitation/Emission wavelengths at 405/460nm, 485/535nm and 540/590nm for blue, green and red labels, respectively. This assay includes the green fluorescence data. […]

[26] = qHTS assay to identify small molecule agonists of the endoplasmic reticulum stress response signaling pathway - cell viability counter screen (AID 1159517; calls by dose curve)
How it was run: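 In parallel with the ESRE reporter read, cytotoxicity was scored by CellTiter-Glo luminescence (30 min, room temperature) on HeLa ESRE-bla cells dosed for 5 hr.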

[27] = biological target: Nuclear receptor subfamily 1 group I member 3 (Homo sapiens) (UniProt Q14994); assay: qHTS assay to identify small molecule agonists of the constitutive androstane receptor (CAR) signaling pathway (AID 1224839);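 further: HepG2 cells stably carrying human CAR and a CYP2B6 luciferase reporter; on the % scale 0 is the no-effect control and ±100 the full control effect; nearly all actives have a fitted effect of over 15% in size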
[28] = qHTS RealTime-Glo MT Cell Viability Assay in HEK293 cells - 16 hour (AID 1224872)
How it was run: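 Reads taken at 0, 8, 16, 24, 32 and 40 h from the same wells. HEK293 cells (600/well) carried RealTime-Glo reagents from seeding, with compound added after a 5 h settle at 37 C.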

[29] = biological target: Glucocorticoid receptor (Homo sapiens) (UniProt P04150); assay: qHTS assay to identify small molecule antagonists of the glucocorticoid receptor (GR) signaling pathway (AID 720692; active means well fitted inhibition curve with a large enough effect in the signal ratio in the repeat runs, not every such curve was filed as active; the % refers to the signal ratio; further: on the % scale 0 is the no-effect control and ±100 the full control effect); conditions: GR-bla HeLa, beta-lactamase FRET ratio, dexamethasone-stimulated, 18 h; at 58.5 µM (top of the series)
[30] = qHTS assay to identify small molecule agonists of the AP-1 signaling pathway (AID 1159526; calls by dose curve; further: on the % scale 0 is the no-effect control and ±100 the full control effect); conditions: ME-180 (cervical carcinoma) AP-1-bla reporter, beta-lactamase FRET ratio, 5 h; at 76.8 µM (top of the series)
[31] = qHTS assay to identify small molecule antagonists of the peroxisome proliferator-activated receptor gamma (PPARg) signaling pathway - cell viability counter screen (AID 743194); further: on the % scale 0 is the no-effect control and ±100 the full control effect; nearly all actives have a fitted effect of over 55% in size
How it was run: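 Cytotoxicity counter screen in PPARg-bla HEK293H cells, same wells as reporter assay. Compounds plus 50 nM rosiglitazone (final) for 17 h at 37 C, then viability read by CellTiter-Glo luminescence.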

O=[As]c1ccccc1 (configuration not stated)
active: Potency [1] 13.7 µM | Potency [2] 1.22 µM | Potency [3] 0.0969 µM | Potency [4] 6.11 µM | Potency [5] 0.692 µM | Potency [6] 1.55 µM | Potency [7] 0.245 µM | Potency [8] 0.389 µM | Potency [9] 13.8 µM | Potency [10] 0.217 µM | Potency [11] 4.33 µM | Potency [12] 0.545 µM | Potency [13] 1.22 µM | Potency [14] 0.545 µM | Potency [15] 24.5 µM | Potency [16] 0.389 µM | Potency [17] 6.11 µM | Potency [18] 13.7 µM | Potency [19] 4.33 µM | Potency [20] 1.93 µM | Potency [21] 2.43 µM | Potency [22] 13.7 µM | Potency [23] 1.93 µM | Potency [24] 24.5 µM

OCCSCCO
inactive: fluorescence, % of fluorescein [25] -0.0069% | Potency [26] | Potency [27] | Potency [28]

O=C(OC1CN2CCC1CC2)c1ccccc1 (configuration not stated)
inactive: activity change, negative = inhibition [29] -11.2%

Cc1cccc([N+](=O)[O-])c1[N+](=O)[O-]
inactive: Potency [26]

COP(=S)(Cl)OC
inactive: activation [30] 18.4%

ClP(Cl)c1ccccc1
inactive: Potency [31]
